The chains behind the UniProt entries cited, without tags or fusion partners. Where a name states a change or a piece, a line headed by the entry shows the natural chain unless it says otherwise.
UniProt Q932Y6, whole entry: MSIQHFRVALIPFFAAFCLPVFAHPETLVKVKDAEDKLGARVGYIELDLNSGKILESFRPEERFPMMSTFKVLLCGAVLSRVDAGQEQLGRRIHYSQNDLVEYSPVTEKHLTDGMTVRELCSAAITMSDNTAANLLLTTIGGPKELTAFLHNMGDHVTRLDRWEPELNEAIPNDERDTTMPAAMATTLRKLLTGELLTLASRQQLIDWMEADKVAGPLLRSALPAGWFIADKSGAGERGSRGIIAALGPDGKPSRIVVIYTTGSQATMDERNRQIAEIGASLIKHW
UniProt P98170, whole entry: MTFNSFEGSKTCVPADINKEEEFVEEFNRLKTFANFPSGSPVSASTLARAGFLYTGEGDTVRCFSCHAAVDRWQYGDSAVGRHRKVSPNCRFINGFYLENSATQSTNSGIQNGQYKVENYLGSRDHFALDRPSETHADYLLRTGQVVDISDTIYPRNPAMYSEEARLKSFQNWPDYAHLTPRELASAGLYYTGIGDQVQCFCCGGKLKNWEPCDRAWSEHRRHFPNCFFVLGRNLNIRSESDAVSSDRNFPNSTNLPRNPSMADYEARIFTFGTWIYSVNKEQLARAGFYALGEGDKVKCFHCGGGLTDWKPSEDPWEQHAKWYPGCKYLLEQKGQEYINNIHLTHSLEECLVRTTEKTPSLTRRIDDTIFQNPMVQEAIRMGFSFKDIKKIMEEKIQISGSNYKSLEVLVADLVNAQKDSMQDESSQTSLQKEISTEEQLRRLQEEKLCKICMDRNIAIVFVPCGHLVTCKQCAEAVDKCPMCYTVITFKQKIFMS
UniProt Q9Y2T6: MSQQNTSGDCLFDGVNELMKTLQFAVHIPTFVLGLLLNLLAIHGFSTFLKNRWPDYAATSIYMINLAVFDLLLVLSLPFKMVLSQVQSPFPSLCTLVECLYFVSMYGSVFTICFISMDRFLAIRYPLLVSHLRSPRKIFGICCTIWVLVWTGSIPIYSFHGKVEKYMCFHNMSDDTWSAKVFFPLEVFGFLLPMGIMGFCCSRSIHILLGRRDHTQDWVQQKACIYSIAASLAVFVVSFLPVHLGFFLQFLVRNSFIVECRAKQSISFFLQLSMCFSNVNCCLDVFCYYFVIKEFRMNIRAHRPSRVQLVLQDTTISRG

According to ChEMBL document CHEMBL1201862, “PubChem BioAssay data set” (2004):

Legend:
Beta Lactamase = Beta Lactamase (Pseudomonas aeruginosa, UniProt Q932Y6); test: beta-lactamase reporter inhibitor potency, dose response, artefact control for TLR9-MyD88 binding inhibitor project, BLA reporter cells, FRET fluorescence (AID 588341); type: cell-based;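 further: cell based assay in CHO-K1 cells stably expressing beta-lactamase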
[1] = target: T1, E3 ubiquitin-protein ligase XIAP (Homo sapiens, UniProt P98170); test: SAR analysis of Antagonists of XIAP-Bir3 domain of IAP-family anti-apoptotic proteins. [Related pubchem assays (depositor defined):AID1018, AID1449, AID1513, AID1514, AID1638]
[2] = target: T1, E3 ubiquitin-protein ligase XIAP; test: SAR analysis of Antagonists of IAP-family anti-apoptotic proteins. [Related pubchem assays (depositor defined):AID1018, AID1449, AID1513, AID1514, AID1638]
[3] = target: G-protein coupled receptor 55 (Homo sapiens, UniProt Q9Y2T6); test: GPR55 antagonists blocking LPI-driven arrestin recruitment, primary screen, imaging, U2OS, beta-arrestin-GFP, LPI agonist (AID 2013); type: functional;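 further: antagonist potency measured as reduced agonist-driven arrestin aggregation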
[4] = Counterscreen for AddAB inhibitors: absorbance-based bacterial cell-based high throughput dose response assay for inhibitors of bacterial viability. [Related pubchem assays (depositor defined):AID435030, AID449728, AID449731, AID488942, AID488955, AID488956]; type: functional

## CCCCNC(=O)COC(=O)c1c2c(nc3ccccc13)/C(=C/c1cccs1)CC2
Beta Lactamase
  IC50: active: 3.32 µM

## CN[C@@H](C)C(=O)N[C@@H](C(=O)N1CCC[C@H]1C(=O)N[C@@H]1CCCc2ccccc21)C(C)C
[1]
  IC50: inactive: > 100 µM
[2]
  IC50: inactive: > 100 µM

## CN[C@H]1C[C@H]2O[C@@](C)([C@H]1OC)n1c3ccccc3c3c4c(c5c6ccccc6n2c5c31)C(=O)NC4
[3]
  IC50: active: 3.18 µM

## CCc1cn([C@H]2C[C@H](O)[C@@H](CO)O2)c(=O)[nH]c1=O [EDOXUDINE]
[4]
  IC50: inactive: 18.5 µM and inactive: 14.5 µM

“And” between values parts separate entries of the source, which are not always exact repeats. Identical values can stand only once. The source made the active and inactive calls.
